For one molecule, IC50 results are on record in ChEMBL document CHEMBL1143666 (J Med Chem, 2007).

What is called IC50 is the concentration needed to halve the response being measured.

The structures appear in SMILES notation. Only a part of the results on these compounds is given; other tests are left out.

For one test, the system named is BT-474. Put plainly: Antiproliferative activity against human BT474 cells by MTS assay. It counts as functional, cell-based. (Tetrazolium assays rely on reduction of a dye to a coloured formazan, in cell work by metabolically active cells.)
Another test has as its system MCF7. Put plainly: Antiproliferative activity against human MCF7 cells by MTS assay. Type of test: functional, cell-based.

In the case of `COc1ccc(I)c(Cc2nc3c(N)ncnc3n2CCNCC(C)(C)C)c1`, the IC50 with BT-474 amounted to 0.1 µM; in the test on MCF7 it was 0.5 µM.
